Test results as given in patent US6646113.

How the values were obtained:
[1] = molecular target: GST-SMN preincubated with His-SMN (SMN oligomer on beads) (human) (UniProt Q16637); assay: GST pull-down after preincubation of GST-SMN with His6-tagged SMN (FIG. 43)
[2] = molecular target: GST-SMN preincubated with His-SMN (SMN oligomer on beads) (human) (UniProt Q16637); assay: GST pull-down after preincubation with His-SMN, lane 4X (bound His-SMN equivalent to GST-SMN)
[3] = molecular target: GST-SMN preincubated with His-SMN (SMN oligomer on beads) (human) (UniProt Q16637); assay: GST pull-down after preincubation with His-SMN, lane 8X

percent of input bound [1]: 100 % of input
fold increase of SmB binding against GST-SMN without His-SMN [2]: 10 fold
fold increase of SmB binding against GST-SMN without His-SMN [3]: 30 fold
percent of input bound [3]: > 60 % of input
Substance: Sm B protein, in vitro translated and 35S-labeled (from UniProt P14678 1-231)
